Experimental data published in patent US11331351B2, “Bacillus strains improving health and performance of production animals” (priority 2015, dated 2022).
Converted amounts (≈) assume the structure as drawn. Read-outs that look alike come from different tables or passages of the source.

System: S. aureus ATCC 29213
Experiment: microbe, parasite or virus in culture
Conditions: Staphylococcus aureus

Row | SMILES | MIC (ATCC29213, read-out: MIC 1) [µg/mL] | MIC (ATCC29213, read-out: MIC 3) [µg/mL] | MIC (ATCC29213, read-out: MIC 2) [µg/mL] | MIC (ATCC29213, read-out: MIC 4) [µg/mL] | MIC (ATCC29213, read-out: MIC 5) [µg/mL]
1 | O=C(N[C@H](CO)[C@H](O)c1ccc([N+](=O)[O-])cc1)C(Cl)Cl [Chloramphenicol] | 8 to 16 (≈ 24.8 to 49.5 µM) | 8 (≈ 24.8 µM) | – | – | –
2 | CC[C@H]1OC(=O)[C@H](C)[C@@H](O[C@H]2C[C@@](C)(OC)[C@@H](O)[C@H](C)O2)[C@H](C)[C@@H](O[C@@H]2O[C@H](C)C[C@H](N(C)C)[C@H]2O)[C@](C)(O)C[C@@H](C)C(=O)[C@H](C)[C@@H](O)[C@]1(C)O [Erythromycin] | 0.5 (≈ 0.681 µM) | 0.5 (≈ 0.681 µM) | 0.5 (≈ 0.681 µM) | 0.5 (≈ 0.681 µM) | 0.5 (≈ 0.681 µM)
3 | NC[C@H]1O[C@H](O[C@H]2[C@H](O)[C@@H](O[C@H]3O[C@H](CO)[C@@H](O)[C@H](N)[C@H]3O)[C@H](N)C[C@@H]2N)[C@H](O)[C@@H](O)[C@@H]1O [Kanamycin] | 4 (≈ 8.26 µM) | 4 (≈ 8.26 µM) | 4 (≈ 8.26 µM) | 4 (≈ 8.26 µM) | 4 (≈ 8.26 µM)
4 | [H]/N=C(/N)N[C@H]1[C@H](O)[C@@H](O)[C@H](O[C@@H]2O[C@@H](C)[C@](O)(C=O)[C@H]2O[C@@H]2O[C@@H](CO)[C@H](O)[C@@H](O)[C@@H]2NC)[C@@H](N/C(N)=N\[H])[C@@H]1O [Streptomycin] | 8 (≈ 13.8 µM) | 8 (≈ 13.8 µM) | 8 (≈ 13.8 µM) | – | 8 (≈ 13.8 µM)
5 | CN(C)[C@@H]1C(O)=C(C(N)=O)C(=O)[C@@]2(O)C(O)=C3C(=O)c4c(O)cccc4[C@@](C)(O)[C@H]3C[C@@H]12 [Tetracycline] | 0.5 (≈ 1.13 µM) | 1 (≈ 2.25 µM) | 1 (≈ 2.25 µM) | 0.5 (≈ 1.13 µM) | 0.5 (≈ 1.13 µM)
6 | CN[C@H](CC(C)C)C(=O)N[C@H]1C(=O)N[C@@H](CC(N)=O)C(=O)N[C@H]2C(=O)N[C@H]3C(=O)N[C@H](C(=O)N[C@H](C(=O)O)c4cc(O)cc(O)c4-c4cc3ccc4O)[C@H](O)c3ccc(c(Cl)c3)Oc3cc2cc(c3O[C@@H]2O[C@H](CO)[C@@H](O)[C@H](O)[C@H]2O[C@H]2C[C@](C)(N)[C@H](O)[C@H](C)O2)Oc2ccc(cc2Cl)[C@H]1O [Vancomycin] | 0.5 (≈ 0.345 µM) | 1 (≈ 0.69 µM) | 1 (≈ 0.69 µM) | 1 (≈ 0.69 µM) | 1 (≈ 0.69 µM)
